# From US9212130B2, “Heterocyclic derivative and pharmaceutical composition comprising the same” (SHIONOGI & CO., LTD., priority 2010, dated 2015)
# The chains behind the UniProt entries cited, without tags or fusion partners.
# UniProt P56373, whole entry: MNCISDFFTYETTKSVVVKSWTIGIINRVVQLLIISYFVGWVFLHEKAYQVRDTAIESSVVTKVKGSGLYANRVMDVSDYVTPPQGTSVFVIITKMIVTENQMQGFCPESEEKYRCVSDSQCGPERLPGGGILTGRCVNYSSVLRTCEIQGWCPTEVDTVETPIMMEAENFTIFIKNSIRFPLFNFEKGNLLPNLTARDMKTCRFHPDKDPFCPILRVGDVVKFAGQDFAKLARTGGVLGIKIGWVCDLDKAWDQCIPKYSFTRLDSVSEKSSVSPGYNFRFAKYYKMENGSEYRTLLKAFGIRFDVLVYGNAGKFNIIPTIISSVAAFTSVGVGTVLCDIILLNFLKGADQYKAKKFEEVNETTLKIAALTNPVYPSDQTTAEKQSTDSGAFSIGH
# Target: human P2X3 receptor (Homo sapiens (Human), UniProt P56373)
# Experiment: Evaluation of human P2X3 receptor inhibitory activity (ATP-induced Fluo-3 fluorescence, FDSS 3000)
# Assay type: cell-based
# Settings: read-out: P2X3 IC50; C6BU-1 cell transfected with human P2X3 receptor gene
smiles,measurement,value
CC(C)Oc1ccc(Nc2sc(Oc3ccccc3)nc2Cc2ccc(Cl)cc2)cc1F,IC50,402 nM
